# Earlier results in paper PMC2748165 (Biochemical pharmacology, 2009).
# Protein sequences, listed by entry. Tags and fused reporters are not part of them.
# UniProt P08183, whole entry: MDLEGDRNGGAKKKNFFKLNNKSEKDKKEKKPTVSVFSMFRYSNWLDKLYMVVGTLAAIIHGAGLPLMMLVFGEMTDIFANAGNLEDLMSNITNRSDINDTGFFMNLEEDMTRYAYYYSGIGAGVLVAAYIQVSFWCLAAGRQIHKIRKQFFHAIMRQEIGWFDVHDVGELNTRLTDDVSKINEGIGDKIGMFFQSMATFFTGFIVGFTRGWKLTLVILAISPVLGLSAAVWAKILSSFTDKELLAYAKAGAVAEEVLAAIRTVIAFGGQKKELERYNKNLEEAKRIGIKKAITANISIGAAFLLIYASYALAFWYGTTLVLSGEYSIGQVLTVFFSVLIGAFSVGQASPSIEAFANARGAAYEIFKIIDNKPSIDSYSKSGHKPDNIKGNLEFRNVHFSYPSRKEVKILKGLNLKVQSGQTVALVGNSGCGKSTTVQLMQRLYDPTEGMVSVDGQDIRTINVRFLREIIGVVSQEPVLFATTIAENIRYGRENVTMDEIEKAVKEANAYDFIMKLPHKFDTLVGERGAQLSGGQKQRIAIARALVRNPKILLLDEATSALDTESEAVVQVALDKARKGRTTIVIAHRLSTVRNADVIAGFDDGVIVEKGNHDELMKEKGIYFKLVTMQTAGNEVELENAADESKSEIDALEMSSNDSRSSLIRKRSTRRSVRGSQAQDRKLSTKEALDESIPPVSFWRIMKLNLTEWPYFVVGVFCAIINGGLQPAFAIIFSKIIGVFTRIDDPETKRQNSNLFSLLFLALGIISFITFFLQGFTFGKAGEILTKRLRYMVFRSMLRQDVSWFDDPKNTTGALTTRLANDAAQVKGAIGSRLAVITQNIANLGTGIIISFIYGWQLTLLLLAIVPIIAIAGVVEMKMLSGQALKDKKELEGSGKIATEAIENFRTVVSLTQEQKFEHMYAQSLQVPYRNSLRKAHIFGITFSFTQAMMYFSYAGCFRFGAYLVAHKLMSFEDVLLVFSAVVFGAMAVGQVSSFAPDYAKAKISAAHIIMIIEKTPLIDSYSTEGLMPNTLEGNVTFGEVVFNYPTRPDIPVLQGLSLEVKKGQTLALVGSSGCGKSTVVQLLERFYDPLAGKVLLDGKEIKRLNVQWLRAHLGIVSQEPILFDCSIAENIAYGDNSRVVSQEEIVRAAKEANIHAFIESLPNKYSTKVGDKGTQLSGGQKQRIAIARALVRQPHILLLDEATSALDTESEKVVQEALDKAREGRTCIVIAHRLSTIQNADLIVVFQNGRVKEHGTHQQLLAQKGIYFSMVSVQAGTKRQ
# Experiments:
# [1] = dual perfusion of human placental lobule; cited from earlier work
# P-gp = P-gp (Homo sapiens, UniProt P08183); conditions: human cDNA-P-gp membrane preparations; cited from earlier work
# placental P-gp = conditions: P-gp inhibitor (GF120918) added to perfusion medium; cited from earlier work
substance,measurement,setting,value
buprenorphine,rate of transfer from the maternal to fetal circuit,[1],11.6 ± 2.5%
same,interaction with P-gp as determined by stimulation of ATP hydrolysis,P-gp,interact/bind to P-gp
same,effect of P-gp inhibitor on concentration in / transfer to the fetal circuit,placental P-gp,but not buprenorphine
